According to patent US7271146B2, “Methods for treatment of Helicobacter pylori-associated disorders” (Vecta Ltd., priority 2002, dated 2007):

What was measured:
[1] = pH-dependent solubility of PG; assay type: physicochemical; conditions: FIG. 9A
Excerpt: A major factor for the success of oral administration of PG is the optimization of delivery under the conditions that prevail in the gastric milieu. Shown in FIG. 9A are the results of the solubility of pentagastrin under various pH conditions. The results are represented in correlation to a gradient of relevant metabolic pH values within the gastric milieu, including values that are expected to occur following PPI treatment.

[2] = HCL-dependent degradation of PG without pepsin; assay type: physicochemical; conditions: pH 1.2 and 3.5, 37° C., absence of pepsin; FIG. 9B
Description: To test the effect of enzymatic degradation, the HCL-dependent degradation of PG without pepsin was tested at pH 1.2 and 3.5, at 37° C. […] The main product of degradation (>80% of all products) corresponds to the standard of pentapeptide without BOC (RT=8.83). Such a fragment will still be active in the eradication of H. pylori.

For βAla-Trp-Met-Asp-PheNH2 [PG], the “solubility with escalating pH values” [1] was “marked increase”, the “solubility (lowest level)” value ([1]; pH 1.2 with NaCl) was 40 ppm and the “maximum loss of pentagastrin” value [2] was 40%.
